Values of other authors in patent publication US20230321114A1, “METHODS OF TREATING AGE-RELATED COGNITIVE DECLINE” (Woolsey Pharmaceuticals, Inc., priority 2020, published 2023).

Amino acid sequences for entries named in this document (tags omitted).
UniProt Q15746, whole entry: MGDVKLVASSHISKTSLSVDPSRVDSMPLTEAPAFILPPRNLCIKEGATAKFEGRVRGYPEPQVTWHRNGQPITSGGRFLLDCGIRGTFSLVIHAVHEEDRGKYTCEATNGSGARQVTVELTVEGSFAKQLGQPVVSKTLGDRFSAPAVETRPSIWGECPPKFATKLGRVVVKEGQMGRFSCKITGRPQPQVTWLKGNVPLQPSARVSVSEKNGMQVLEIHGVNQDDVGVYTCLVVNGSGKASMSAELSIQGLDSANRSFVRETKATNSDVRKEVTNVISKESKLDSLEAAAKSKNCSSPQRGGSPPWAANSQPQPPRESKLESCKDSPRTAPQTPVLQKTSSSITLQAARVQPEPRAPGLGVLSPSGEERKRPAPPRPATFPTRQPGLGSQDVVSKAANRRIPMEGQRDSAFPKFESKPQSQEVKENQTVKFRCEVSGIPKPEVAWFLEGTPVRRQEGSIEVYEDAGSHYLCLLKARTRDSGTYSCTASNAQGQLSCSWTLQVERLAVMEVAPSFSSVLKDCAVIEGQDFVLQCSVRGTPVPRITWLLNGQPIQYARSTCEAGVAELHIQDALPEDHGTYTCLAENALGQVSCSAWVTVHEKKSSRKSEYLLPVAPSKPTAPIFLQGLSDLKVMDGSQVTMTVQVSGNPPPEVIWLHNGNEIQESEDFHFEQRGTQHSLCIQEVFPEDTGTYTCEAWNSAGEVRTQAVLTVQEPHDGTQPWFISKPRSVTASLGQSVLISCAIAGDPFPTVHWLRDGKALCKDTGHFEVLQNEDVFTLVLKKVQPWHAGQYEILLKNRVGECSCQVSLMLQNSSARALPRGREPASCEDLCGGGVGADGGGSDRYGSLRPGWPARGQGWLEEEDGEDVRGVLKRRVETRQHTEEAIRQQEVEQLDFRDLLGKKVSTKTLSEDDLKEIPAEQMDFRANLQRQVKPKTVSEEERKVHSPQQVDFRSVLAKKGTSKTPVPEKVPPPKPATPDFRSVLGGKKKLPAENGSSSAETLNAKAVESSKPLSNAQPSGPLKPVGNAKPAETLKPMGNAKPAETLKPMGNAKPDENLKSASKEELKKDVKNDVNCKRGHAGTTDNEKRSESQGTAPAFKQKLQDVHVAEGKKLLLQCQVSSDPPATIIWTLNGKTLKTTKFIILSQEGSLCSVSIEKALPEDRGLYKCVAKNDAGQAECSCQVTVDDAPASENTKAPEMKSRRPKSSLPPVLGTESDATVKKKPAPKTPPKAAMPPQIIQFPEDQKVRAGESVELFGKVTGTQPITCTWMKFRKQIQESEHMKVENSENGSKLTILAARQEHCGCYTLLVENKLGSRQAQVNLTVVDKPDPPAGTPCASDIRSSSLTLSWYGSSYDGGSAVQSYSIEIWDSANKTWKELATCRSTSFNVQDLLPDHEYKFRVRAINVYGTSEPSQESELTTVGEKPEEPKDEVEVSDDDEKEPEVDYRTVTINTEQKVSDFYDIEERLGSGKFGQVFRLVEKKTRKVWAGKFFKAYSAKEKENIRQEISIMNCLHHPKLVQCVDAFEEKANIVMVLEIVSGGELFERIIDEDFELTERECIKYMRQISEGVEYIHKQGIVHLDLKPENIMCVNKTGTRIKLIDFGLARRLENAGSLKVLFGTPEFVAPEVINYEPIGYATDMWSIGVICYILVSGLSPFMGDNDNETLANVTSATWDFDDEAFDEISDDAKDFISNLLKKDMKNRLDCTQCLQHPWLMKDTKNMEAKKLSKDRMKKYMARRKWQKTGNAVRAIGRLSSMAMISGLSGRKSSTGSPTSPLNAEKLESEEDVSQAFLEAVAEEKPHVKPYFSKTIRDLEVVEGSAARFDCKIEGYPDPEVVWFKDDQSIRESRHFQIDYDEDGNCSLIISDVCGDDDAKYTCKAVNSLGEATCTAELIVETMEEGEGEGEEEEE

Molecular target: MLCK (Homo sapiens, UniProt Q15746)
Details: compared with fasudil

Question: Which “activity in vasodilation relative to fasudil parent molecule” value does the source give for `O=S(=O)(c1cccc2c(O)nccc12)N1CCCNCC1` [hydroxyfasudil] here?
Answer: Its value is “slightly enhanced activity”.
